In patent US5648237A, “Expression of functional antibody fragments” (Genentech, Inc., priority 1995, dated 1997):
Where two headings read alike, the source gives them in different places.

Assays:
SK-BR-3 cells = experiment: anti-proliferative activity with breast carcinoma SK-BR-3 cells; type: cell-based, human
p185^HER2 ECD = p185^HER2 ECD binding affinity; set-up: species or system human
[1] = test system: human tumor cell lines overexpressing p185^HER2; settings: cited from earlier work
[2] = blocking of the anti-proliferative activity of muMAb4D5; type: cell-based; settings: monovalent Fab fragment

Substance | anti-proliferative activity with SK-BR-3 cells (in words) (SK-BR-3 cells) | anti-proliferative activity with SK-BR-3 cells (in words) (SK-BR-3 cells; listed as F(ab')2) | binding affinity for p185^HER2 ECD compared with F(ab')2 from proteolysis of intact antibody (in words) (p185^HER2 ECD; listed as F(ab')2) | binding affinity for p185^HER2 ECD compared with F(ab')2 from proteolysis of intact antibody (in words) (p185^HER2 ECD; listed as huMAb4D5-8 F(ab')2) | growth inhibition / anti-proliferative activity against p185^HER2 overexpressing tumor cells (in words) [1] | blocking of the anti-proliferative activity of the bivalent parent antibody muMAb4D5 (in words) [2]
F(ab')2 E. coli: bivalent F(ab')2 of huMAb4D5-8 formed in vitro by coupling E. coli derived Fab'-SH with Fab'-TNB | identical anti-proliferative activity | indistinguishable | indistinguishable | identical | – | –
huMAb4D5-8: humanized version of monoclonal antibody 4D5 against p185HER2, intact bivalent antibody derived from 293 cells | – | – | – | – | comparable anti-proliferative activity | –
Fab: monovalent Fab fragment of humanized anti-p185HER2 antibody huMAb4D5-8, secreted from E. coli | does not significantly affect the growth | – | – | – | – | possible to block the anti-proliferative activity
